In this experiment the target is T1, AMAN-2 (F58H1.1; Golgi α-mannosidase II) (Caenorhabditis elegans, UniProt Q2PJ74).
T1 sequence (Q2PJ74 125-1145): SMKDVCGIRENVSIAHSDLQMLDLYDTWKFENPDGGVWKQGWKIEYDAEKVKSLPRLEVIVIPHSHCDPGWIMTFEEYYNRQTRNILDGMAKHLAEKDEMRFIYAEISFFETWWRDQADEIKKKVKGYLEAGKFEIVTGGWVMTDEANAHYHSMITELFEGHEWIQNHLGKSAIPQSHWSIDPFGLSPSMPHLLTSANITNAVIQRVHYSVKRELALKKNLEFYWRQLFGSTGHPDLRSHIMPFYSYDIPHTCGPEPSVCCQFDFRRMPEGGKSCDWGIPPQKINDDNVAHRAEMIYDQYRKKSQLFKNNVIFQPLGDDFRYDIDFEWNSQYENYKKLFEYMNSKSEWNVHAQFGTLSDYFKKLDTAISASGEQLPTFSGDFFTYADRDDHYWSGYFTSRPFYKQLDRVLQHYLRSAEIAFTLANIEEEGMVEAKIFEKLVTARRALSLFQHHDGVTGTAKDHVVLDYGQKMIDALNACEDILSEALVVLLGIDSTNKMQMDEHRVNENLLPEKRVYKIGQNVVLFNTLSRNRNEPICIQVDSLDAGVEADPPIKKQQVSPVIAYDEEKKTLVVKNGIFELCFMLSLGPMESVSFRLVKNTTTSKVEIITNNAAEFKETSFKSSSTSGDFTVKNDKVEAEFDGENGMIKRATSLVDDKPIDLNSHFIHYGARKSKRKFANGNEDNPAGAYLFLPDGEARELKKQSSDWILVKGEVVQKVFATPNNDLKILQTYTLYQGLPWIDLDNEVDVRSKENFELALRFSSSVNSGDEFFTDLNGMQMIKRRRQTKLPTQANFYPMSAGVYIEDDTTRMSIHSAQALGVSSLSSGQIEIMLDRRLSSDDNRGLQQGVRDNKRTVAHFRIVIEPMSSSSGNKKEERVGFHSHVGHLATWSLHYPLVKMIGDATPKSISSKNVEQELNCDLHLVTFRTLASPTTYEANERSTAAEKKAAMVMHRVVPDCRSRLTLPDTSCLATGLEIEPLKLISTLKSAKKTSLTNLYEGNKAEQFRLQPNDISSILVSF
The experiment can be described thus: inhibition of p-nitrophenyl-α-mannoside hydrolysis, A405. The experiment is classed as biochemical. Conditions: read-out: % inhibition at 10 nM.

For the compound `O[C@H]1[C@H]2[C@H](O)CCCN2C[C@H]1O` [swainsonine], the inhibition (usually the change of the read-out against control, counted positive when it falls) at 0.01 µM was roughly 45%.

The values above are taken from paper PMC2848328 (The Journal of biological chemistry, 2006).
